One compound from US20250171438A1 (Agios Pharmaceuticals, Inc., priority 2022, published 2025) can be followed below.

Chains of the proteins cited; added tags and fusions are not shown.
UniProt P00439, whole entry R408W: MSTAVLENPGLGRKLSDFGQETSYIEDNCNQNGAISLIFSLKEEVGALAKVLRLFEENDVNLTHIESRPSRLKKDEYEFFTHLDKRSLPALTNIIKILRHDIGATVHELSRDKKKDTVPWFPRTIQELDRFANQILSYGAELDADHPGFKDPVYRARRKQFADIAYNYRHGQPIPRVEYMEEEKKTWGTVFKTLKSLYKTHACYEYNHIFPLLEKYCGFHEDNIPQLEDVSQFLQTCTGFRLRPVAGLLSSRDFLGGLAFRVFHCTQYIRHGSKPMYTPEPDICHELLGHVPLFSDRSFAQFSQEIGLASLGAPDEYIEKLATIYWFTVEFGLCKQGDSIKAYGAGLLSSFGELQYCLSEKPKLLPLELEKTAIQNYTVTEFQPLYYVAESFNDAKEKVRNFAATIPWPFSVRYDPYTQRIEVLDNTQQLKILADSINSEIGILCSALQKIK

For this assay, the target named is human PAH with the R408W mutation (Homo sapiens, UniProt P00439, R408W). Kind of assay: Cell Based Phenylalanine Flux Assay. The settings on record: A375 cells expressing human R408W PAH; 24 hrs compound incubation; 13C-Tyrosine by LC-MS; average where tested multiple times.

The term AC50 denotes the midpoint of the concentration-response curve, whichever way the signal moves.

As to `Fc1ccc2nc(C3c4nc[nH]c4CCN3Cc3nccs3)[nH]c2c1` (stereo not shown), the AC50 is greater than 5 µM.
